EP0863156A1 (American Cyanamid Company, priority 1997, dated 1998)

Protein sequences, listed by entry. Tags and fused reporters are not part of them.
UniProt P30680, whole entry: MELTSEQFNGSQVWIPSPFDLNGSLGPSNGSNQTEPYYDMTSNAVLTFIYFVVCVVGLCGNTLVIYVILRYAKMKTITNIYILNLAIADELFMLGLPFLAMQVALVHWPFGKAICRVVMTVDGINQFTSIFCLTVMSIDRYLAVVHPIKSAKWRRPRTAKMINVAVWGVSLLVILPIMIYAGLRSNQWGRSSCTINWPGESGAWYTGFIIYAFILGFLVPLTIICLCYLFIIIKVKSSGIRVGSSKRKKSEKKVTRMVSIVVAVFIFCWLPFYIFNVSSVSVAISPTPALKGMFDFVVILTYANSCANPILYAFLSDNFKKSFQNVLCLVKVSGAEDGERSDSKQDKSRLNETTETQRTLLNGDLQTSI

Target: SSTR2 (Rattus norvegicus, UniProt P30680)
Assay: cAMP accumulation in forskolin-stimulated GH4C1/SSTR2 cells (SPA radioimmunoassay)
Assay type: cell-based
Details: cAMP level, dose response of SRIF agonist + 10 µM peptide 1, forskolin stimulated cells

C[C@H](N)C(=O)NCC(=O)N[C@H]1CSSC[C@@H](C(=O)O)NC(=O)[C@H](CO)NC(=O)[C@H]([C@@H](C)O)NC(=O)[C@H](Cc2ccccc2)NC(=O)[C@H]([C@@H](C)O)NC(=O)[C@H](CCCCN)NC(=O)[C@H](Cc2c[nH]c3ccccc23)NC(=O)[C@H](Cc2ccccc2)NC(=O)[C@H](Cc2ccccc2)NC(=O)[C@H](CC(N)=O)NC(=O)[C@H](CCCCN)NC1=O
Maximum: 8.281
Minimum: 2.883
